Reference: patent US20220194983A1, “PEPTIDE LIGANDS FOR BINDING TO PSMA” (BicycleTx Limited, priority 2018, published 2022)

Chains of the proteins cited; added tags and fusions are not shown.
UniProt Q04609, whole entry: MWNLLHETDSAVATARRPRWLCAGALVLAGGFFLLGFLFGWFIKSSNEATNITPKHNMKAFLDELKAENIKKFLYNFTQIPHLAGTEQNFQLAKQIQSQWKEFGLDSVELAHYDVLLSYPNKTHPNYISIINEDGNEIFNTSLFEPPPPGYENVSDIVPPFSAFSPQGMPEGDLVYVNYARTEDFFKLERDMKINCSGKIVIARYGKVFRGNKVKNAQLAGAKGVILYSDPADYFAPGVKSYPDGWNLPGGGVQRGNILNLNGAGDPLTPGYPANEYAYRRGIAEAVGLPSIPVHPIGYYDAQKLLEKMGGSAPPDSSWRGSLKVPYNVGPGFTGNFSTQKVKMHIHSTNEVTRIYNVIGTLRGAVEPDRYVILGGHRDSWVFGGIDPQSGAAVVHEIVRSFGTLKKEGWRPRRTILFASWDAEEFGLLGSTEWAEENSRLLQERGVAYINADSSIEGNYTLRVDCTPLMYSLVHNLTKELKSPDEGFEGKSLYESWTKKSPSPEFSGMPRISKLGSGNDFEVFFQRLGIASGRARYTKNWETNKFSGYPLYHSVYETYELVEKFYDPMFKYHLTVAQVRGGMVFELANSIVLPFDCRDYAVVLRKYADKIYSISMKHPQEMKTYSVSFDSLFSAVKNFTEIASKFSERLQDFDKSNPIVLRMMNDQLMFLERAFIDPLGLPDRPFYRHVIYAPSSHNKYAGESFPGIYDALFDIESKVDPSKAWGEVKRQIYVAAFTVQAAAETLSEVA

Molecular target: T1, PSMA (Homo sapiens, UniProt Q04609)
Experiment: PSMA enzyme inhibition assay
Assay type: biochemical
Details: reference thioether TBMB peptide ligands; evaluated as in earlier application GB201720940.4
Protocol: (§1) PSMA binding was measured using the fluorescence polarization assay methodology described in Shen et al (2013) PLOS ONE 8(7), e68339 and PSMA enzyme inhibition was measured using the methodology described in WO 2009/070302.

Substance	IC50 [nM]
ACMVCHMMEDGTCA [A1]	695

Molecular target: T1, PSMA
Experiment: PSMA binding, fluorescence polarization assay
Details: read-out: measured affinity (Ki) to PSMA
Protocol: as §1

Substance	Ki [nM]
EV[Dap(Me)]WDCFMMEDGT[Dap(Me)]A [21-31-04-T01-N018]	18.9
EVCWDCFMMEDGTCA [21-31-04-T01-N001]	3
EVCWD[Dap(Me)]FMMEDGT[Dap(Me)]A [21-31-04-T01-N017]	700
EV[Dap(Me)]WD[Dap(Me)]FMMEDGTCA [21-31-04-T01-N016]	44.3

Same assay, conditions: reference thioether TBMB peptide ligands; evaluated as in earlier application GB201720940.4; read-out: FP (h) ki

Substance	Ki [nM]
Ac-(D-E)VCWDCF(Nle)(Nle)EDGTCA-Sar6-(D-K) [A15]	55
(B-Ala)-Sar5-VCLECNMMEDGTC [A20]	512
Ac-CMVCHMMEDGTC [A2]	182
(B-Ala)-Sar5-EVCWDCFMMEDGTC [A9]	163
SVCRECYMMEDGTCA [A16]	13
LCMECYMMEDGTCA [A18]	7.6
ACMVCHMMEDGTCA [A1]	40
ACMVCHMMEDGTCAGASPAAPSAPP [A3]	95.5
FCSECYMMEDGTCA [A17]	6
Ac-(D-E)VCWDCF(Nle)(Nle)EDGTCA-Sar6-K [A11]	38.5
(D-V)CLECNMMEDGTCA-Sar6-K [A19]	1490
CIECYIMEDGTCA [A4]	70
Ac-CMVCHMMEDGTCA-Sar6-K [A21]	384
Ac-(D-E)VCWDCFMMEDGTCA-Sar6-K(Ac) [A10]	18.3
Ac-(D-E)VCWDCF(Nle)MEDGTCA-Sar6-(D-K) [A13]	82
CEECLTLEDGTCA [A5]	28
(B-Ala)-Sar5-ACMVCHMMEDGTC [A22]	596
Ac-(D-E)VCWDCFMMEDGTCA-Sar6-(D-K) [A12]	30
Ac-(D-E)VCWDCFM(Nle)EDGTCA-Sar6-(D-K) [A14]	5.1
Ac-C(Nle)VCH(Nle)(Nle)EDGTCA-Sar6-K [A23]	296
CEECFRLEDGTCA [A6]	36.5
EVCWDCFMMEDGTCA [21-31-04-T01-N001]	2.2
(D-E)VCWDCFMMEDGTCA-Sar6-K [A8]	25.8

Molecular target: T1, PSMA
Experiment: measured PSMA affinities (ka, kd, KD) of Dap(Me) substituted bicycles, Table 1
Assay type: binding
Details: not given

Substance	Kd
[Ac][dE]V[Dap(Me)]WDCF[Nle]LEDGT[Dap(Me)]A [BCY00009310]	728 nM and 734 nM
[Ac][dE]V[Dap(Me)]WDCK[Nle][Nle]EDGT[Dap(Me)]A [BCY00009315]	1640 nM
[Ac][dE]V[Dap(Me)]WDCY[Nle][Nle]EDGT[Dap(Me)]A [BCY00009304]	120 nM and 214 nM
[Ac][dE]V[Dap(Me)]WDCFL[Nle]EDGT[Dap(Me)]A [BCY00009306]	218 nM and 381 nM
[Ac][dE]V[Dap(Me)]WDCF[Nle][Hse(Me)]EDGT[Dap(Me)]A [BCY00009309]	5660 nM and 5970 nM
[Ac][dE]V[Dap(Me)][2Nal]DCF[Nle][Nle]EDGT[Dap(Me)]A [BCY00009303]	213 nM and 317 nM
[Ac][dE]V[Dap(Me)]WDCFY[Nle]EDGT[Dap(Me)]A [BCY00009308]	330 nM and 441 nM
[Ac][dE]V[Dap(Me)]WDCF[Nle][tBuAla]EDGT[Dap(Me)]A [BCY00009311]	124 nM
[Ac][dE]V[Dap(Me)]WDCF[Hse(Me)][Nle]EDGT[Dap(Me)]A [BCY00009305]	1240 nM and 1580 nM
[Glutarate][dE]V[Dap(Me)]WDCF[Nle][Nle]EDGT[Dap(Me)]A [BCY00009313]	78.8 nM
[Ac][dE]V[Dap(Me)]KDCF[Nle][Nle]EDGT[Dap(Me)]A [BCY00009314]	1020 nM and 1140 nM
[Ac][dE]V[Dap(Me)]WDCF[Nle][Nle]EDGT[Dap(Me)]A [BCY00009300]	145 nM
[Ac][dE]V[Dap(Me)]WDCF[tBuAla][Nle]EDGT[Dap(Me)]A [BCY00009307]	486 nM and 658 nM

“And” between values parts separate entries of the source, which are not always exact repeats. Equal entries are not always repeated.
